Measured values as given in patent US20220372138A1.

The chains behind the UniProt entries cited, without tags or fusion partners. Residues count along the entry.
UniProt Q5DX21, 23-241: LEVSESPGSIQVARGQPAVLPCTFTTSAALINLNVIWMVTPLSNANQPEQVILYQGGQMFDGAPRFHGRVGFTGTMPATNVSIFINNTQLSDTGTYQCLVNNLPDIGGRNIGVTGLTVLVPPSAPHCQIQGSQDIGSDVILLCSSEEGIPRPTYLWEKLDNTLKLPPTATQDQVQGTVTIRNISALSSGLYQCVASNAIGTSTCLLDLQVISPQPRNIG
UniProt P0C673, 23-240 limits assumed: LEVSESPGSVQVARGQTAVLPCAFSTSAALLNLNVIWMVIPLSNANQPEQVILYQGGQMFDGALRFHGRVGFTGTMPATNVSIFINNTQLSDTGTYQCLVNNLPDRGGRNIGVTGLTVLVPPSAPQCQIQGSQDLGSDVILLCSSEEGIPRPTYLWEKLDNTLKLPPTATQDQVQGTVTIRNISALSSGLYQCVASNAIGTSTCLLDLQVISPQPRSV

What was measured:
[1] = biological target: extracellular domain (ECD) of human IGSF11 (VSIG3), recombinant (human) (UniProt Q5DX21); assay: ELISA RFU 0.5-1.0
[2] = biological target: ECD of murine IGSF11, recombinant biotinylated (mouse) (UniProt P0C673); assay: ELISA RFU 0.5-1.0

Question: Which results are given for A-018 (scFv format)?
Answer: ELISA binding signal (RFU) [1]: 0.5 to 1 rfu; ELISA binding signal (RFU) [2]: 0.5 to 1 rfu
